Source: PMC7817688, “Identification of 3-chymotrypsin like protease (3CLPro) inhibitors as potential anti-SARS-CoV-2 agents” (Communications Biology, 2021)
Where “and” joins values, the source holds several entries; their conditions need not be identical. Equal entries are not always repeated.

Molecular target: SARS-CoV-2 3CLpro enzyme (Severe acute respiratory syndrome coronavirus 2, UniProt P0DTD1)
Format: biochemical

Compound | percent enzymatic activity, AVG [%] | percent enzymatic activity, individual values
CC(C)CN(C[C@@H](O)[C@H](Cc1ccccc1)NC(=O)O[C@H]1CCOC1)S(=O)(=O)c1ccc(N)cc1 [Amprenavir] | 90.4762 | 88.9401% and 88.0184% and 94.4701% (2×)
C[C@H]1C[C@@H]2[C@H]([C@@H](O)C[C@@]3(C)[C@H]2CC[C@]3(O)C(=O)CO)[C@@]2(C)C=CC(=O)C=C12 [Methylprednisolone] | 107.7 | 115.127% and 102.748% and 105.224%
NC(=O)c1ncn([C@@H]2O[C@H](CO)[C@@H](O)[C@H]2O)n1 [Ribavirin] | 96.507 | 92.1775% and 102.652% and 94.6914%
